For the series the following is noted: dog, in vivo. As to the method: In addition to total cholesterol values other parameters were measured including blood glucose levels at pretest, week 13 and week 26 of the study.

`Cc1cc2c(s1)Nc1ccccc1N=C2N1CCN(C)CC1` [olanzapine, 2-methyl-10-(4-methyl-1-piperazinyl)-4H-thieno[2,3-b][1,5]benzodiazepine, reference compound]: the “blood glucose level, pretest” value is recorded as 84.1 mg/dL.
